Experiments:
[1] = Supplementary Table S1; cited from earlier work
[2] = ref National library of medicine, Daylimed; cited from earlier work
[3] = WHO adverse drug reactions VigiBase; ref Kumlien and Lundberg, 2010; cited from earlier work
[4] = seizure ADR frequency in SIDER; ref Campillos et al., 2008; Kuhn et al., 2010; cited from earlier work
[5] = established from VigiBase, SIDER, Elsevier drug information and FDA prescribing information

Structure (SMILES) | Free Cmax highest [1] [nM] | FDA prescription information at therapeutic dose (Convulsion/ Seizure/Lower the seizure threshold/withdrawal) [2] | Percentage seizures of total number of ADRs [3] [%] | SIDER ADR on-/off-label [4] | Classification* (degree of seizure risk) [5]
Cc1cc2c(s1)Nc1ccccc1N=C2N1CCN(C)CC1 [Olanzapine] | 18 | not found on label | 1.656 | postmarketing, rare | –
CC(C)C[C@H](CN)CC(=O)O [Pregabalin] | – | – | – | infrequent (0.1-1%) | –
Cn1c(=O)c2[nH]cnc2n(C)c1=O [Theophylline] | – | on label | – | 3% - 21% | Risk
CN1c2ccccc2C(NCCCCCCC(=O)O)c2ccc(Cl)cc2S1(=O)=O (stereo not shown) [Tianeptine] | – | – | 0.8983 | – | Low risk
